Data: patent US9315491B2 (DEVELOPMENT CENTER FOR BIOTECHNOLOGY, priority 2009, dated 2016)

Assays:
A549 cells = assay: Antiproliferation assay (MTS), A549; assay type: cell-based; conditions: Homo sapiens; A549, 72 hours of drug treatment
PC-3 cells = assay: Antiproliferation assay (MTS), PC-3; assay type: cell-based; conditions: Homo sapiens, PC3, 72 hours of drug treatment
Experimental: (1) Antiproliferation Assay
PC-3, U-87 MG, HCC1954 and BT474 cell lines were purchased from the American Type Culture Collection (ATCC, USA). PC-3 was grown in F12K medium (GIBCO) containing 10% FBS. U-87 MG was grown in Eagle's minimum essential medium (MEM, Sigma) supplemented with nonessential amino acids, L-glutamine, sodium pyruvate, and 10% FBS. HCC1954 was grown in RPMI medium (GIBCO) containing 10% FBS. […] All cells were incubated in a humidified atmosphere containing 5% CO2 at 37° C.
Cell lines were inoculated to the wells of a 96-well culture plate with 1000-5000 cells per well. The compounds were prepared and used to treat cells with less than 1% DMSO. After 72 hours of drug treatment, the viability of each cell line was examined by CellTiter 96 Aqueous Non-Radioactive Cell Proliferation Assay (Promega). The living cells were detectable by conversion of MTS into aqueous, soluble formazan. MTS/PMS solution was freshly prepared and 20 μl of MTS/PMS solution was added to each well of the 96-well cultured plate. The assay plate was incubated for 3 hours and the absorbance at 490 nm was measured by EMax ELISA Reader (Molecular Devices). The IC50 values of compounds were determined after carrying out assays at eight serially diluted concentrations of each compound in triplicate, and are the mean of three separate determinations. The results were analyzed using linear regression software (GraphPad Prism 5; GraphPad Software Inc.).

Structure (SMILES)	IC50 (A549 cells)	IC50 (PC-3 cells)
CSc1cnc(-c2ccc(NC(=O)Nc3ccc(N4CCOCC4=O)cc3)cc2)nc1N1CCOCC1 [MTR-0227, 1-[4-(5-Methylsulfanyl-4-morpholin-4-yl-pyrimidin-2-yl)-phenyl]-3-[4-(3-oxo-morpholin-4-yl)-phenyl]-urea]	0.223 ± 0.02 µM	0.049 ± 0.003 µM
COc1cnc(-c2ccc(NC(=O)Nc3cccnc3)cc2)nc1N1CCOCC1 [MTR-0228, 1-[4-(5-Methoxy-4-morpholin-4-yl-pyrimidin-2-yl)-phenyl]-3-pyridin-3-yl-urea]	1.03 ± 0.114 µM	0.193 ± 0.008 µM
COc1cnc(-c2ccc(NC(=O)Nc3ccc(N4CCOCC4=O)cc3)cc2)nc1N1CCOCC1 [MTR-0241, 1-[4-(5-Methoxy-4-morpholin-4-yl-pyrimidin-2-yl)-phenyl]-3-[4-(3-oxo-morpholin-4-yl)-phenyl]-urea]	0.129 ± 0.005 µM	0.061 ± 0.004 µM
COc1cnc(-c2ccc(NC(=O)Nc3ccc(N4CCOCC4)c(F)c3)cc2)nc1N1CCOCC1 [MTR-0242, 1-(3-Fluoro-4-morpholin-4-yl-phenyl)-3-[4-(5-methoxy-4-morpholin-4-yl-pyrimidin-2-yl)-phenyl]-urea]	0.748 ± 0.14 µM	0.286 ± 0.001 µM
CCOC(=O)c1nc(-c2ccc(NC(=O)Nc3ccc(C(N)=O)cc3)cc2)nc(N2CCOCC2)c1OCC [MTR-0244, 2-{4-[3-(4-Carbamoyl-phenyl)-ureido]-phenyl}-5-ethoxy-6-morpholin-4-yl-pyrimidine-4-carboxylic acid ethyl ester]	0.891 ± 0.064 µM	0.07 ± 0.009 µM
CSc1cnc(-c2ccc(NC(=O)Nc3ccc(N4CCOCC4)cc3)cc2)nc1N1CCOCC1 [MTR-0248, 1-[4-(5-Methylsulfanyl-4-morpholin-4-yl-pyrimidin-2-yl)-phenyl]-3-(4-morpholin-4-yl-phenyl)-urea]	0.145 ± 0.005 µM	0.178 ± 0.027 µM
CCOC(=O)c1nc(-c2ccc(NC(=O)Nc3cccc(NC(C)=O)c3)cc2)nc(N2CCOCC2)c1OCC [MTR-0250, 2-{4-[3-(3-Acetylamino-phenyl)-ureido]-phenyl}-5-ethoxy-6-morpholin-4-yl-pyrimidine-4-carboxylic acid ethyl ester]	0.834 ± 0.037 µM	0.305 ± 0.024 µM
CCOC(=O)c1nc(-c2ccc(NC(=O)Nc3cccc(C(N)=O)c3)cc2)nc(N2CCOCC2)c1OCC [MTR-0251, 2-{4-[3-(3-Carbamoyl-phenyl)-ureido]-phenyl}-5-ethoxy-6-morpholin-4-yl-pyrimidine-4-carboxylic acid ethyl ester]	2.06 ± 0.075 µM	0.456 ± 0.023 µM
CCOc1c(C(=O)N2CCOCC2)nc(-c2ccc(NC(=O)Nc3cccnc3)cc2)nc1N1CCOCC1 [MTR-0253, 1-{4-[5-Ethoxy-4-(morpholine-4-carbonyl)-6-morpholin-4-yl-pyrimidin-2-yl]-phenyl}-3-pyridin-3-yl-urea]	2.48 ± 0.367 µM	0.268 ± 0.044 µM
CSc1c(Cl)nc(-c2ccc(NC(=O)Nc3ccc(C(N)=O)cc3)cc2)nc1N1CCOCC1 [MTR-0257, 4-{3-[4-(4-Chloro-5-methylsulfanyl-6-morpholin-4-yl-pyrimidin-2-yl)-phenyl]-ureido}-benzamide]	0.501 ± 0.023 µM	0.119 ± 0.014 µM
COc1cnc(-c2ccc(NC(=O)Nc3ccc(N4CCOCC4)cc3)cc2)nc1N1CCOCC1 [MTR-0261, 1-[4-(5-Methoxy-4-morpholin-4-yl-pyrimidin-2-yl)-phenyl]-3-(4-morpholin-4-yl-phenyl)-urea]	0.512 ± 0.025 µM	0.111 ± 0.002 µM
COc1cnc(-c2ccc(NC(=O)Nc3ccc(N4CCSCC4)cc3)cc2)nc1N1CCOCC1 [MTR-0262, 1-[4-(5-Methoxy-4-morpholin-4-yl-pyrimidin-2-yl)-phenyl]-3-(4-thiomorpholin-4-yl-phenyl)-urea]	0.561 ± 0.049 µM	0.13 ± 0.004 µM
CSc1cnc(-c2ccc(NC(=O)Nc3ccc(C(N)=O)cc3)cc2)nc1N1CCOCC1 [MTR-0267, 4-{3-[4-(5-Methylsulfanyl-4-morpholin-4-yl-pyrimidin-2-yl)-phenyl]-ureido}-benzamide]	3.49 ± 0.156 µM	0.207 ± 0.007 µM
CSc1c(Cl)nc(-c2ccc(NC(=O)Nc3ccc(C(=O)N4CCN(C)CC4)cc3)cc2)nc1N1CCOCC1 [MTR-0271, 1-[4-(4-Chloro-5-methylsulfanyl-6-morpholin-4-yl-pyrimidin-2-yl)-phenyl]-3-[4-(4-methyl-piperazine-1-carbonyl)-phenyl]-urea]	0.155 ± 0.001 µM	0.097 ± 0.004 µM
CCOC(=O)c1nc(-c2ccc(NC(=O)Nc3ccc(S(N)(=O)=O)cc3)cc2)nc(N2CCOCC2)c1OCC [MTR-0273, 5-Ethoxy-6-morpholin-4-yl-2-{4-[3-(4-sulfamoyl-phenyl)-ureido]-phenyl}-pyrimidine-4-carboxylic acid ethyl ester]	0.66 ± 0.04 µM	0.162 ± 0.006 µM
CCOC(=O)c1nc(-c2ccc(NC(=O)Nc3ccc(C(=O)N4CCN(C)CC4)cc3)cc2)nc(N2CCOCC2)c1OCC [MTR-0274, 5-Ethoxy-2-(4-{3-[4-(4-methyl-piperazine-1-carbonyl)-phenyl]-ureido}-phenyl)-6-morpholin-4-yl-pyrimidine-4-carboxylic acid ethyl ester]	0.135 ± 0.011 µM	0.057 ± 0.002 µM
CCOC(=O)c1nc(-c2ccc(NC(=O)Nc3ccc(C(=O)NCCN(C)C)cc3)cc2)nc(N2CCOCC2)c1OCC [MTR-0277, 2-(4-{3-[4-(2-Dimethylamino-ethylcarbamoyl)-phenyl]-ureido}-phenyl)-5-ethoxy-6-morpholin-4-yl-pyrimidine-4-carboxylic acid ethyl ester]	0.561 ± 0.03 µM	0.086 ± 0.003 µM
COc1cnc(-c2ccc(NC(=O)Nc3ccc(C(N)=O)cc3)cc2)nc1N1CCOCC1 [MTR-0282, 4-{3-[4-(5-Methoxy-4-morpholin-4-yl-pyrimidin-2-yl)-phenyl]-ureido}-benzamide]	7.57 ± 0.755 µM	0.148 ± 0.014 µM
COc1cnc(-c2ccc(NC(=O)Nc3ccc(S(N)(=O)=O)cc3)cc2)nc1N1CCOCC1 [MTR-0283, 4-{3-[4-(5-Methoxy-4-morpholin-4-yl-pyrimidin-2-yl)-phenyl]-ureido}-benzenesulfonamide]	3.72 ± 0.341 µM	0.283 ± 0.031 µM
CSc1cnc(-c2ccc(NC(=O)Nc3ccc(S(N)(=O)=O)cc3)cc2)nc1N1CCOCC1 [MTR-0288, 4-{3-[4-(5-Methylsulfanyl-4-morpholin-4-yl-pyrimidin-2-yl)-phenyl]-ureido}-benzenesulfonamide]	3.98 ± 0.275 µM	0.252 ± 0.027 µM
CCOC(=O)c1nc(-c2ccc(NC(=O)Nc3ccc4oc(=O)[nH]c4c3)cc2)nc(N2CCOCC2)c1OCC [MTR-0299, 5-Ethoxy-6-morpholin-4-yl-2-{4-[3-(2-oxo-2,3-dihydro-benzooxazol-5-yl)-ureido]-phenyl}-pyrimidine-4-carboxylic acid ethyl ester]	2.5 ± 0.049 µM	0.384 ± 0.039 µM
CSc1c(Cl)nc(-c2ccc(NC(=S)Nc3cccnc3)cc2)nc1N1CCOCC1 [MTR-0303, 1-[4-(4-Chloro-5-methylsulfanyl-6-morpholin-4-yl-pyrimidin-2-yl)-phenyl]-3-pyridin-3-yl-thiourea]	0.223 ± 0.008 µM	0.046 ± 0.001 µM
CSc1c(Cl)nc(-c2ccc(NC(=O)Nc3ccc(C(=O)N4CCOCC4)cc3)cc2)nc1N1CCOCC1 [MTR-0308, 1-[4-(4-Chloro-5-methylsulfanyl-6-morpholin-4-yl-pyrimidin-2-yl)-phenyl]-3-[4-(morpholine-4-carbonyl)-phenyl]-urea]	0.219 ± 0.011 µM	0.062 ± 0.002 µM
CCOC(=O)c1nc(-c2ccc(NC(=O)Nc3ccc(N4CCOCC4=O)cc3)cc2F)nc(N2CCOCC2)c1OCC [MTR-0322, 5-Ethoxy-2-(2-fluoro-4-{3-[4-(3-oxo-morpholin-4-yl)-phenyl]-ureido}-phenyl)-6-morpholin-4-yl-pyrimidine-4-carboxylic acid ethyl ester]	0.302 ± 0.001 µM	0.109 µM
CCOc1cnc(-c2ccc(NC(=O)Nc3ccc(C(N)=O)cc3)cc2)nc1N1CCOCC1 [MTR-0323, 4-{3-[4-(5-Ethoxy-4-morpholin-4-yl-pyrimidin-2-yl)-phenyl]-ureido}-benzamide]	1.04 ± 0.023 µM	0.086 ± 0.003 µM
CCOc1cnc(-c2ccc(NC(=O)Nc3ccc(N4CCOCC4=O)cc3)cc2)nc1N1CCOCC1 [MTR-0325, 1-[4-(5-Ethoxy-4-morpholin-4-yl-pyrimidin-2-yl)-phenyl]-3-[4-(3-oxo-morpholin-4-yl)-phenyl]-urea]	0.053 ± 0.002 µM	0.016 ± 0.001 µM
CCOc1cnc(-c2ccc(NC(=O)Nc3ccc(S(N)(=O)=O)cc3)cc2)nc1N1CCOCC1 [MTR-0326, 4-{3-[4-(5-Ethoxy-4-morpholin-4-yl-pyrimidin-2-yl)-phenyl]-ureido}-benzenesulfonamide]	1.03 ± 0.019 µM	0.147 ± 0.01 µM
COc1cnc(-c2ccc(NC(=O)Nc3ccc(N4CCN(C)CC4)cc3)cc2)nc1N1CCOCC1 [MTR-0337, 1-[4-(5-Methoxy-4-morpholin-4-yl-pyrimidin-2-yl)-phenyl]-3-[4-(4-methyl-piperazin-1-yl)-phenyl]-urea]	0.457 ± 0.038 µM	0.154 ± 0.006 µM
CSc1c(Cl)nc(-c2ccc(NC(=O)Nc3ccc(NS(C)(=O)=O)cc3)cc2)nc1N1CCOCC1 [MTR-0347, N-(4-{3-[4-(4-Chloro-5-methylsulfanyl-6-morpholin-4-yl-pyrimidin-2-yl)-phenyl]-ureido}-phenyl)-methanesulfonamide]	0.313 ± 0.003 µM	0.154 ± 0.008 µM
